Test results taken from PubChem BioAssay AID1347417 (National Center for Advancing Translational Sciences (NCATS), 2020).
The entries are a selection whose mix differs from that of the whole data set. Some of these compounds have results that are not shown, active ones among them. Inconclusive results are not listed. The source made the active and inactive calls. Calls follow the shape of the dose curve; as a rule, active = well fitted inhibition curve with a large enough effect; inconclusive = small, poorly fitted or top-dose-only effect; inactive = no such curve, though single readings can be large or run the other way.

Experiment: qHTS Primary assay for Inhibitors of Plasmodium falciparum Dd2 growth in vitro;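 also: plate controls were DMSO vehicle for no effect and reference drug for full effect; nearly all actives have a fitted effect of over 65% in size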
Conditions: P. falciparum Dd2 growth, SYBR Green, 72 h; at 28.9 µM (top of the series)
Excerpt: Malaria, a parasitic disease spread to humans through the bite of a Plasmodium infected Anopheles mosquito, continues to be a global health burden affecting millions of people, with an estimated 228 million cases and 405,000 deaths in 2018. Concerns about safety and limitations of current antimalarial treatments strongly emphasize the need to develop new therapeutic options. The scarce number of chemotypes and validated drug targets with efficacy against the liver stage, have hindered development of new antimalarials. To address this, a chemoprophylactic drug discovery effort was conducted through a combined phenotypic high-throughput asexual blood stage and liver stage screen, providing a robust foundation to identify liver-stage active lead chemotypes. Compounds were initially screened against Plasmodium falciparum Dd2 strain parasites using a in vitro SYBRGreen-1 based 72 hr proliferation assay to identify novel chemotypes to advance to liver stage assays. NIH/NCATS Early Translation Branch Assay Submitter (PI): Anton Simeonov Ph.D.
Malaria-vivax Assay Protocol: PROTOCOL TABLE (as described by Inglese et al., 2007) SEQUENCE No. (e.g., 1, 2, 3, etc.); […] (e.g., Cells, Incubation, Reagent, etc.); VALUE; DESCRIPTION SEQUENCE, Parameter, Description 1; Reagent; 3 uL complete malaria growth medium, 1536 TC treated Black clear bottom plate 2; Controls; 23 nL positive control artesunate (300 nM final) to column 1; Neutral control DMSO to columns 2-4 3; Compound; 23 nL of compounds in dose response concentration (29 uM to 0.5 nM final) 4; Reagent; 5 uL malaria infected red blood cells (2.5% hematocrit final, 0.3% parasitemia 5; Time; 72 hours at 37C (5% O2, 5% CO2, 90% N2; 95% Rh) 6; Reagent; 2 uL lysis buffer/SYBRGreen-1, 25 sec shake immediately following dispense 7; Time; ~16 hours at 37C (5% O2, 5% CO2, 90% N2; 95% Rh) 8; Detector; EnVision (PerkinElmer) bottom read at 485/14nm excitation and 535/25 nm emission NOTES (numbers refer to sequence above): 1; Complete Malaria Growth Media: 1X RPMI-1640 w/L-glutamine, 5.5g/L Albumax II, 367 uM Hypoxanthine, 25 mM HEPES, 0.25% Sodium Bicarbonate, 35 uM Gentamicin sulfate 2; Controls were added using the Kalypsis Pintool (Wako USA) equipped with 1536 pinhead 3; Compounds were added in a 7-point, titration with a high final concentration of 29 uM by Pintool from seven inter-plate titrations of library plates and two DMSO control plates at the beginning and end (see Yasgar et al., 2008). 4; Red blood cells infected with Plasmodium falciparum Dd2 parasites were used. 6; Lysis buffer: 20 mM Tris-HCl, 10 mM EDTA, 0.16% Saponin, 1.6% Triton-X, 10X SYBR Green. REFERENCE: Inglese J, Shamu CE, Guy RK. 2007. Reporting data from high-throughput screening of small-molecule libraries. Nat Chem Biol. doi:10.1038/nchembio0807-438 Yasgar A, Shinn P, Jadhav A, Auld D, Michael S, Zheng W, Austin CP, Inglese J, Simeonov A. 2008. Compound Management for Quantitative High-Throughput Screening. J Lab Autom 13:79-89. doi:10.1016/j.jala.2007.12.004

SMILES | activity, negative = inhibition
CN(C)C1(CNC(=O)c2ccccc2[N+](=O)[O-])CCCCC1 | inactive: -4.51%
CN(C)C1(CNC(=O)c2ccccc2F)CCCCC1 | inactive: -23.9%
CN(C)C1(CNC(=O)c2cccc(Cl)c2)CCCCC1 | inactive: -10.1%
CC(C)COc1ccc(C(=O)NCC2(N(C)C)CCCCC2)cc1 | inactive: -30%
CC(C)Oc1ccc(C(=O)NCC2(N(C)C)CCCCC2)cc1 | inactive: 5.42%
COc1cc(C(=O)NCC2(N(C)C)CCCCC2)cc(OC)c1OC | inactive: -13.8%
Cc1cccc(C(=O)NCC2(N(C)C)CCCCC2)c1 | inactive: -10%
COc1ccc(C(=O)NCC2(N(C)C)CCCCC2)cc1Cl | inactive: -7.05%
